Measurements taken from ChEMBL document CHEMBL5543150, “Design, Synthesis, and Pharmacological Evaluation of Spiro[carbazole-3,3'-pyrrolidine] Derivatives as cGAS Inhibitors for Treatment of Acute Lung Injury” (J Med Chem, 2024).

Protein sequences, listed by entry. Tags and fused reporters are not part of them.
UniProt Q8C6L5, whole entry: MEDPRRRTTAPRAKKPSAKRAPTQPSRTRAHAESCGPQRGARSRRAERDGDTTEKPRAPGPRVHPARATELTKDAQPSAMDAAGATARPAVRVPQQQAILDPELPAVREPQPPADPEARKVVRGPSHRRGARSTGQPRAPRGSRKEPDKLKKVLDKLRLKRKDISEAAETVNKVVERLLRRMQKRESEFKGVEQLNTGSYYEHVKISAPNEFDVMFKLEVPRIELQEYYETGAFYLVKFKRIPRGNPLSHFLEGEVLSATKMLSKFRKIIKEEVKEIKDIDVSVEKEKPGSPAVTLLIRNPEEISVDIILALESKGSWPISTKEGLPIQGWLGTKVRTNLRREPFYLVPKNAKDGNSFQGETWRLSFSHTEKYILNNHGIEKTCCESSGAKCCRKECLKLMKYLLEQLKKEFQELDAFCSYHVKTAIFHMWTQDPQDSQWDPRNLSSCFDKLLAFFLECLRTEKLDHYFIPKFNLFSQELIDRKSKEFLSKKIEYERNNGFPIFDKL

Molecular target: Cyclic GMP-AMP synthase (Mus musculus) (UniProt Q8C6L5)
Assay: Inhibition of cGAS activation in ds-DNA activated mouse RAW-Lucia ISG cells
Format: cell-based
Conditions: dose 0.5-50 µM

SMILES	inhibition
O=C(CO)N1CC[C@@]2(CCc3[nH]c4c(Cl)c(Cl)cc(-c5ccn(C(F)F)n5)c4c3C2)C1	Dose-Dependent Effect

Molecular target: Cyclic GMP-AMP synthase (Mus musculus) (UniProt Q8C6L5)
Assay: Inhibition of cGAS in mouse RAW-Lucia ISG cells at 10 uM preincubated for 1 hr followed by cGAMP addition and measured after 24 hrs by luminescence based QUANTI-Luc assay relative to control
Format: cell-based
Conditions: time 25.0 hrs

SMILES	inhibition
O=C(CO)N1CCC2(CCc3[nH]c4c(Cl)c(Cl)cc(-c5ccn(C(F)F)n5)c4c3C2)C1 (racemic)	39%
Nc1cc(-c2cc(Cl)c(Cl)c3[nH]c4c(c23)CC2(CC4)CCN(C(=O)CO)C2)ccn1 (stereo unspecified)	60%
O=C(CO)N1CCC2(CCc3[nH]c4c(Cl)c(Cl)cc(-c5cnn(C(F)F)c5)c4c3C2)C1 (stereo unspecified)	45%
Cn1ccc(-c2cc(Cl)c(Cl)c3[nH]c4c(c23)CN(C(=O)CO)CC4)n1	-5%
Cn1ccc(-c2cc(Cl)c(Cl)c3[nH]c4c(c23)CC2(CC4)CCN(C(=O)CO)C2)n1 (stereo unspecified)	45%
